Most compounds without a hit are left out; they make up all but 13% or so of the library.
Sfp inh: inhibitors of Bacillus subtilis Sfp phosphopantetheinyl transferase. Q9F4F7. Biochemical Sfp PPTase activity, qHTS. Potency, µM, for the others: max response, negative = inhibition, most hits filed as inhibitors. actives 3.5% (n = 310,000). AID 1490; active means well fitted inhibition curve with a large enough effect; inconclusive means small, poorly fitted or top-dose-only effect, or another doubt; inactive means no such curve, though single readings can be large or run the other way;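 further: the enzyme is Sfp with the accession as filed and its product quenches rhodamine fluorescence; potency means the concentration at half of the fitted maximal effect; 0% = enzyme reaction without inhibitor and -100% = no enzyme wells; top concentration of the series not given in the record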
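Fluorescence-quenching assay: 15 nM Sfp-PPTase preincubated 15 min at room temperature with compound, then 5 uM rhodamine-CoA and 12.5 uM BHQ-2-labelled YbbR peptide added. Fluorescence (ex 525/em 598 nm) read at start and after 30 min; difference gives rate.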
ALDH1A1 block: blocks purified human ALDH1A1 activity; P00352; Purified ALDH1A1, NADH fluorescence, propionaldehyde substrate; Potency, µM (titrated, usually from 75.3 µM), for the others: at the highest dose activity, negative = inhibition, usual class: inhibitors; 220,000 compounds, 7.3% hits; active = well fitted inhibition curve with a large enough effect, not every such curve was filed as active; inconclusive = small, poorly fitted or top-dose-only effect, or another doubt; inactive = no such curve, though single readings can be large or run the other way;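 note: potency is the fitted concentration of half-maximal effect; plate controls were no enzyme wells and a reference inhibitor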
Lamin A splicing: changes lamin A minigene splicing in HeLa cells; AID 1487; Potency, µM (top dose mostly 46.1 µM), for inactives: at the highest dose ratio change, negative = inhibition, usual class: inhibitors; HeLa LMNA splicing GFP/RFP minigene ratio, 48 h; 200,000 compounds, 0.01% hits; active = well fitted inhibition curve with a large enough effect in the signal ratio, with a control signal flat, not every such curve was filed as active; inconclusive = small, poorly fitted or top-dose-only effect, or effect the other way, or a change in a side signal; the % refers to the signal ratio; note: potency is the fitted concentration of half-maximal effect; % is set by controls: 0 for no effect and ±100 for the full control effect
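S3 HeLa stable clones carrying a lamin A-EGFP splicing minigene plus DsRed2 were seeded at 600 cells/well in Opti-MEM with 2% FBS, pin-dosed and incubated 48 h at 37°C. Acumen cytometry (488 nm) gave the GFP/RFP total-intensity ratio.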
miR-21 FLuc: raises the signal of a miR-21 reporter | AID 2288 | 340,000 tested, under 10 active | Potency, µM (series often up to 38.3 µM), without a hit: at the highest dose reporter change, positive = more light | HeLa miR-21 FLuc reporter, luciferase, 48 h; active = well fitted rising curve with a large enough effect; inconclusive = small, poorly fitted or top-dose-only effect; inactive = no such curve, though single readings can be large or run the other way;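 further: % of control where 0% means no effect; miR-21 action dims this reporter so a rising signal means less miR-21 action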
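HeLa cells stably expressing CMV-driven firefly luciferase with a downstream miR-21 binding sequence, endogenously expressing miR-21, were treated with titrations (up to about 40uM final) for 48 hours at 37 degree Celsius. Luciferase luminescence was read after lysis.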
G9a block: blocks human histone lysine methyltransferase G9a | G9a H3K9 monomethylation, AlphaScreen, 2 h | 350,000 compounds, 8.8% hits | Potency, µM (titrated, usually from 102 µM), without a hit: at the highest dose activity, negative = inhibition, actives largely listed as inhibitors | Q96KQ7; note: potency is the fitted concentration of half-maximal effect; % is set by controls: 0 for no effect and ±100 for the full control effect; nearly all actives have a fitted effect of over 75% in size
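G9a (20 nM) was preincubated 15 min with compound, then reacted 2 h at room temperature with 500 nM biotin-H3K9 peptide and 20 µM SAM. Monomethyl-H3K9 detected by AlphaScreen using anti-H3K9me1 antibody.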
KDM4E inh: JMJD2E (human) inhibition. JMJD2E catalytic domain, FDH-coupled NADH fluorescence (FDH is formaldehyde dehydrogenase). B2RXH2. 230,000 compounds, 1.6% hits. Potency, µM (doses to about 57.1 µM), for the others: at the highest dose activity change, negative = inhibition, hits mostly inhibitors; active = well fitted inhibition curve with a large enough effect, not every such curve was filed as active; inconclusive = small, poorly fitted or top-dose-only effect, or another doubt; inactive = no such curve, though single readings can be large or run the other way;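 note: potency is the fitted concentration of half-maximal effect; 0% = wells with enzyme and -100% = buffer wells without enzyme; nearly all actives have a fitted effect of over 50% in size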
Numbers without * were called inactive; ? = inconclusive; / = no result given; [ ] = another dose, or the depositor's remark. Unless noted, calls come from the whole dose curve; as a rule, active = well fitted curve in the direction sought with a large enough effect; inconclusive = small, poorly fitted or top-dose-only effect, or another doubt; inactive = no such curve, though single readings can be large; an effect the other way counts as inactive or inconclusive.

Compound | G9a block | Sfp inh | ALDH1A1 block | Lamin A splicing | KDM4E inh | miR-21 FLuc
CCOc1ccc(N(CCCCO)C(=S)NC(=O)c2ccc(C)c(Br)c2)cc1 | / | -20% | 22µM* | 8%[46 µM] | -12% | -14%
COc1ccc2cc(CN(Cc3cccs3)Cc3nnnn3Cc3ccccc3)c(=O)[nH]c2c1 | 2%[59 µM] | 0% | 2µM* | ? | ? | 1%
Cc1cccc2cc(CN(CCCN3CCOCC3)Cc3nnnn3C(C)(C)C)c(=O)[nH]c12 | ? | 13% | 25µM* | 5% | -9% | -1%
CCC(C)(C)n1nnnc1CN(Cc1cccs1)Cc1cc2cc(OC)ccc2[nH]c1=O | -49% | -2% | ? | ? | ? | 19%
COc1ccc2[nH]c(=O)c(CN(Cc3nnnn3Cc3ccccc3)CC3CCCO3)cc2c1 (stereo not drawn) | ? | 89µM* | ? | -6% | ? | -18%
CCC(c1nnnn1C(C)(C)CC)N(CCCN1CCOCC1)Cc1cc2cccc(C)c2[nH]c1=O (stereo not drawn) | ? | -9% | ? | 1% | -13% | 0%
COc1ccc2cc(CN(Cc3cccnc3)Cc3nnnn3Cc3ccccc3)c(=O)[nH]c2c1 | 2% | 8% | 8.9µM* | -5% | -5% | -4%
O=C(NC1(C(F)(F)F)C(=O)Nc2c1c(=O)[nH]c(=O)n2-c1ccccc1)c1ccccc1 (stereo not drawn) | -35%[59 µM] | / | / | / | / | 0%
Cc1cccc2cc(CN(Cc3cccs3)Cc3nnnn3Cc3ccccc3)c(=O)[nH]c12 | -3%[59 µM] | 0% | 2.8µM* | ? | -24% | 15%
CCOC(=O)Cn1nnnc1CN(Cc1cccs1)Cc1cc2cc(C)cc(C)c2[nH]c1=O | ? | 16µM* | ? | 8% | ? | 0%
COC(=O)CSc1ncc2c(n1)-c1ccccc1N(Cc1ccc(Cl)cc1)S2(=O)=O | 6%[59 µM] | / | / | / | / | -1%
c1ccc(COc2ccc(OCCCCN3CCCC3)cc2)cc1 | 22µM* | ? | ? | -8% | ? | -30%
c1ccc(OCCCCN2CCCCC2)cc1 | 7%[59 µM] | 19% | / | / | / | -6%
c1ccc(COc2ccc(OCCCN3CCCCC3)cc2)cc1 | 13µM* | -15% | -7% | 7% | -25% | -39%
c1ccc(OCCCN2CCCC2)cc1 | 3.2µM* | 11% | ? | 18% | ? | -12%
COc1ccc(OCCCN2CCCCCC2)cc1 | 15%[2.33 µM] | -3% | -7% | -1% | -5% | -1%
COc1ccc(OC)c(C(=O)CSc2nc3ncccc3[nH]2)c1 | 50µM* | -13% | ? | ? | -12% | -10%
COc1ccc(OC)c(C(=O)CSc2nc3cccnc3n2C)c1 | -28%[12.7 µM] | 79µM* | 22µM* | -3% | 1% | -1%
CCc1cccc(NC(=O)c2cn3c4c(ccc(Cl)c4c2=O)OC(C)C3)c1 (stereo not drawn) | -19%[59 µM] | / | / | -23%[46 µM] | / | 4%
CC1(C)CC(=O)c2c(oc3ccc(NS(=O)(=O)c4ccc(C(=O)O)cc4)cc23)C1 | ? | 2% | 9% | ? | -8% | -1%
CC1(C)CC(=O)c2c(oc3cc4c(cc23)OCO4)C1 | / | 17% | 7.9µM* | / | 17% | /
COc1ccccc1C(=O)Nc1ccc2nc(SCC(=O)N3CCCC3)sc2c1 | 8%[59 µM] | / | / | 11%[46 µM] | / | -16%
CCOc1ccc2c(c1)C(C)=CC(C)(C)N2S(=O)(=O)c1ccc(F)cc1 | -11% | 1% | / | / | / | 13%
CCOc1ccc2c(c1)-c1c(ssc1=S)C(C)(C)N2C | 4µM* | -23% | ? | ? | 6% | -8%
COc1cc(CCC(=O)Nc2cccc(C(F)(F)F)c2)cc(OC)c1OC | 45µM* | 10% | -3% | -11% | -9% | 0%
CSc1nnc(C2CCCN2)n1C (stereo not drawn) | 2.5µM* | ? | 2% | -2% | 4% | 2%
CC(C)CC1C(C#N)=C(N)SC(N)=C1C#N | ? | ? | 3.5µM* | -6% | ? | 6%
N#CC1=C(N)SC(N)=C(C#N)C1CCc1ccccc1 | ? | ? | ? | -18% | ? | 11%
N#CC1=C(N)SC(N)=C(C#N)C1Cc1ccccc1 | ? | ? | 8.9µM* | -2% | 9% | -1%
COc1cc(C2CC(=O)Nc3cc4c(cc32)OCO4)cc(OC)c1O (stereo not drawn) | ? | / | / | / | / | -11%

Part of the list above, as labelled records.
c1ccc(COc2ccc(OCCCCN3CCCC3)cc2)cc1
  G9a block = 22µM*; Sfp inh = ?; ALDH1A1 block = ?; Lamin A splicing = -8%; KDM4E inh = ?; miR-21 FLuc = -30%
c1ccc(OCCCCN2CCCCC2)cc1
  G9a block = 7%[59 µM]; Sfp inh = 19%; ALDH1A1 block = /; Lamin A splicing = /; KDM4E inh = /; miR-21 FLuc = -6%

New compounds follow.
Compound | G9a block | Sfp inh | ALDH1A1 block | Lamin A splicing | KDM4E inh | miR-21 FLuc
CC(NC(=O)CN1C(=O)COc2ccc(S(=O)(=O)N3CCCCCC3)cc21)c1ccccc1 (stereo not drawn) | -7%[59 µM] | / | / | / | / | -3%
COC(=O)C1=C(C)N(Cc2ccco2)C(=O)/C1=C\c1ccc([N+](=O)[O-])cc1 | 18µM* | 20µM* | 15µM* | ? | ? | -2%
COC(=O)C1=C(C)N(Cc2ccc(OC)cc2)C(=O)/C1=C\c1ccco1 | 10µM* | -9% | -13% | / | -4% | -1%
COC(=O)C1=C(C)N(C)C(=O)/C1=C\c1ccco1 | -8%[59 µM] | -8% | 0% | ? | 0% | 4%
O=C(NCc1ccc(Cl)cc1)c1ccc(CNS(=O)(=O)c2ccc(F)cc2)cc1 | -17%[59 µM] | / | / | -6%[46 µM] | / | -7%
N#CCc1ccc(NS(=O)(=O)c2ccc(N3CCCC3=O)cc2)cc1 | 4% | 7% | 14µM* | ? | 4% | -3%
O=C1CCCN1c1ccc(S(=O)(=O)Nc2ccc3c(c2)OCCO3)cc1 | 22%[59 µM] | 7% | -7% | ? | -5% | 22%
C=CCc1cccc2cc(C(=O)NC3=C(C#N)CCC3)c(=O)oc12 | 2%[59 µM] | 14% | 0.89µM* | -3% | -3% | -5%
C=CCc1cccc2cc(C(=O)Nc3ccc(CC(=O)O)cc3)c(=O)oc12 | 50µM* | -3% | 11% | -18%[46 µM] | -2% | 11%
C=CCc1cccc2cc(C(=O)N3CCN(C(=O)c4ccccc4)CC3)c(=O)oc12 | 14µM* | -14% | / | / | / | -5%
C=CCc1cccc2cc(C(=O)Nc3ccc(S(=O)(=O)Nc4nnc(CC)s4)cc3)c(=O)oc12 | ? | 79µM* | -2% | 3% | -12% | -5%
COc1cccc(CNC(=O)CCn2c(=O)c3cccn3c3ccc(F)cc32)c1OC | 10%[59 µM] | / | / | 4%[46 µM] | / | 4%
CCN1C(=NCC(C)C)N[C@@H](c2ccccc2)[C@H](C(=O)OC)[C@H]1C | -1%[12.7 µM] | 22% | / | / | / | -2%
CCOc1ccc(C2c3c(oc4ccc(C)cc4c3=O)C(=O)N2CCCN(C)C)cc1 (stereo not drawn) | 5%[59 µM] | / | / | 17%[46 µM] | / | 1%
Cc1cccc(NC(=O)Cn2c(O)c(N=NC(N)=S)c3ccccc32)c1 | -15%[59 µM] | 40µM* | / | / | -2% | 15%
O=C(Cn1c(O)c(N=NC(=O)c2ccncc2)c2ccccc21)Nc1ccccc1 | -2%[59 µM] | -23% | / | / | 5% | -14%

Three compounds from above, sorted by number of heavy atoms, high to low.
Compound | G9a block | Sfp inh | ALDH1A1 block | Lamin A splicing | KDM4E inh | miR-21 FLuc
COc1cccc(CNC(=O)CCn2c(=O)c3cccn3c3ccc(F)cc32)c1OC | 10%[59 µM] | / | / | 4%[46 µM] | / | 4%
O=C(Cn1c(O)c(N=NC(=O)c2ccncc2)c2ccccc21)Nc1ccccc1 | -2%[59 µM] | -23% | / | / | 5% | -14%
C=CCc1cccc2cc(C(=O)NC3=C(C#N)CCC3)c(=O)oc12 | 2%[59 µM] | 14% | 0.89µM* | -3% | -3% | -5%

Screening data as filed in PubChem.
